The text below walks through data of patent US6936585B2, “Corticotropin releasing factor 2 receptor agonists” (priority 2002, dated 2005).

pEC50: −log10 of the molar value.

One assay deals with T1, CRF2R (Homo sapiens, UniProt Q13324).
T1 sequence (Q13324 1-411): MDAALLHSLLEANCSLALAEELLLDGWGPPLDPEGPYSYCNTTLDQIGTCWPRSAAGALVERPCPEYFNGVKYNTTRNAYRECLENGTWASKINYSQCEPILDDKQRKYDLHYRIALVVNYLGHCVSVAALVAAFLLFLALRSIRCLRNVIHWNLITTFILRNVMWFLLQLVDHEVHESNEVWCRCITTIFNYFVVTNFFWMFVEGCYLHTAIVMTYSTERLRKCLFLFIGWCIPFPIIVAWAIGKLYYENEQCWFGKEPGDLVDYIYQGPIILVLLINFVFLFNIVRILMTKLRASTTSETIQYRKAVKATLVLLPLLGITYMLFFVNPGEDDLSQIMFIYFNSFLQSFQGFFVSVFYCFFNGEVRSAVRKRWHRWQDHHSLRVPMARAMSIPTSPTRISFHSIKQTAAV
The assay can be described thus: CRF2R agonist activation (EC50 / Emax), called comparative CRF binding. The assay is classed as cell-based. As to conditions: for Emax: read-out: CRF2R Emax. In short, it runs like this:
(§1)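 Read-out is Gαs-driven cAMP induction, quantified directly in lysates or through CRE-reporter gene expression, after treating CRF1R- or CRF2R-expressing cells with peptide. Vehicle-treated cells serve as the comparison.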

The next assay concerns the target T2, CRF1R (Homo sapiens, UniProt P34998).
T2 sequence (P34998 24-415): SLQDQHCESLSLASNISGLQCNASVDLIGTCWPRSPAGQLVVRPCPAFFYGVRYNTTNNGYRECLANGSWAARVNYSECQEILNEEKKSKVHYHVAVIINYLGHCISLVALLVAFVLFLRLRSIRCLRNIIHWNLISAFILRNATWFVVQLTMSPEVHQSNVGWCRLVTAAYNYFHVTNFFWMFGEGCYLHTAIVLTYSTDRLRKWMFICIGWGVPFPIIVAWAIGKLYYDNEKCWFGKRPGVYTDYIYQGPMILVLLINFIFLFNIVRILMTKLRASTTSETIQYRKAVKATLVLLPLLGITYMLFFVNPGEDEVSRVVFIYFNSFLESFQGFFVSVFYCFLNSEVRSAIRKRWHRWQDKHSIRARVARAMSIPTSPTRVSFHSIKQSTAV
The assay can be described thus: CRF1R agonist activation (EC50 / Emax), called comparative CRF binding. The assay is classed as cell-based. The conditions noted are these: for Emax: read-out: CRF1R Emax. In short, it runs like this:
as §1

For orientation: pEC50 means the negative decadic logarithm of the EC50, by convention in mol/L. A low value points to a high EC50. By Emax is commonly meant the maximal effect, on the per cent scale that the assay sets. On to `CC[C@H](C)[C@H](NC(=O)[C@H](CCC(=O)O)NC(=O)[C@@H](NC(=O)[C@H](CCSC)NC(=O)[C@H](CCCCN)NC(=O)[C@H](CCCNC(=N)N)NC(=O)[C@H](CC(C)C)NC(=O)[C@H](CC(C)C)NC(=O)[C@H](CCC(N)=O)NC(=O)[C@H](Cc1ccccc1)NC(=O)[C@@H]1CCCN1C(=O)[C@H](CC(C)C)NC(=O)[C@H](CC(=O)O)NC(=O)[C@@H](NC(=O)[C@H](CO)NC(=O)[C@@H](NC(=O)[C@@H]1CCCN1C(=O)[C@@H]1CCCN1C(=O)CNC(=O)[C@@H]1CCC(=O)N1)[C@@H](C)CC)[C@@H](C)CC)[C@@H](C)CC)C(=O)N[C@@H](CCC(=O)O)C(=O)N[C@@H](CCCCN)C(=O)N[C@@H](CCC(N)=O)C(=O)N[C@@H](CCC(=O)O)C(=O)N[C@@H](CCCCN)C(=O)N[C@@H](CCC(=O)O)C(=O)N[C@@H](CCCCN)C(=O)N[C@@H](CCC(N)=O)C(=O)N[C@@H](CCC(N)=O)C(=O)N[C@@H](C)C(=O)N[C@H](C(=O)N[C@H](C(=O)N[C@@H](CC(N)=O)C(=O)N[C@@H](C)C(=O)N[C@@H](CCCNC(=N)N)C(=O)N[C@@H](CC(C)C)C(=O)N[C@@H](CC(C)C)C(=O)N[C@@H](CC(=O)O)C(=O)N[C@@H](CCCNC(=N)N)C(=O)N[C@H](C(N)=O)C(C)C)[C@@H](C)O)[C@@H](C)O` [compound 22], for which the pEC50 at CRF2R is 8.08; on CRF1R (CRF1R EC50) it was no more than 6.00. The maximal effect (Emax) at CRF2R stood at 100%; at CRF1R, 64%.

Take `CC[C@H](C)[C@H](NC(=O)[C@@H](NC(=O)[C@H](CC(=O)O)NC(=O)[C@H](CC(C)C)NC(=O)[C@H](CC(C)C)NC(=O)[C@H](CC(C)C)NC(=O)[C@H](CCCNC(=N)N)NC(=O)[C@H](CC(N)=O)NC(=O)[C@H](CC(N)=O)NC(=O)[C@H](C)NC(=O)[C@H](C)NC(=O)[C@H](CCC(N)=O)NC(=O)[C@H](CCC(N)=O)NC(=O)[C@H](CCCCN)NC(=O)[C@H](CCC(=O)O)NC(=O)[C@H](CCCCN)NC(=O)[C@H](CCC(=O)O)NC(=O)[C@H](CCC(N)=O)NC(=O)[C@H](CCCCN)NC(=O)[C@H](CCC(=O)O)NC(=O)[C@@H](NC(=O)[C@H](CCC(=O)O)NC(=O)[C@@H](NC(=O)[C@@H](NC(=O)[C@H](CCCCN)NC(=O)[C@H](CCCNC(=N)N)NC(=O)[C@H](CC(C)C)NC(=O)[C@H](CC(C)C)NC(=O)[C@@H](NC(=O)[C@H](CCC(N)=O)NC(=O)[C@@H]1CCCN1C(=O)[C@H](CC(C)C)NC(=O)[C@H](CC(=O)O)NC(=O)[C@@H](NC(=O)[C@H](CO)NC(=O)[C@@H](NC(=O)[C@@H]1CCCN1C(=O)[C@@H]1CCCN1C(=O)CNC(=O)[C@@H]1CCC(=O)N1)[C@@H](C)CC)[C@@H](C)CC)[C@@H](C)CC)C(C)C)[C@@H](C)CC)[C@@H](C)CC)[C@@H](C)O)C(N)=O` [compound 293]: the maximal effect (Emax) at CRF2R amounted to 87%; on CRF1R, 95.3%.

On to `CC[C@H](C)[C@H](NC(=O)[C@H](CCC(=O)O)NC(=O)[C@@H](NC(=O)[C@H](CCSC)NC(=O)[C@H](CCCCN)NC(=O)[C@H](CCCNC(=N)N)NC(=O)[C@H](CC(C)C)NC(=O)[C@H](CC(C)C)NC(=O)[C@H](CCC(N)=O)NC(=O)[C@H](Cc1ccccc1)NC(=O)[C@@H]1CCCN1C(=O)[C@H](CC(C)C)NC(=O)[C@H](CC(=O)O)NC(=O)[C@@H](NC(=O)[C@H](CO)NC(=O)[C@@H](NC(=O)[C@@H]1CCCN1C(=O)[C@@H]1CCCN1C(=O)CNC(=O)[C@@H]1CCC(=O)N1)[C@@H](C)CC)[C@@H](C)CC)[C@@H](C)CC)C(=O)N[C@@H](CCC(=O)O)C(=O)N[C@@H](CCCCN)C(=O)N[C@@H](CCC(N)=O)C(=O)N[C@@H](CCC(=O)O)C(=O)N[C@@H](CCCCN)C(=O)N[C@@H](CCC(=O)O)C(=O)N[C@@H](CCCCN)C(=O)N[C@@H](CCC(N)=O)C(=O)N[C@@H](CCC(N)=O)C(=O)N[C@@H](C)C(=O)N[C@H](C(=O)N[C@H](C(=O)N[C@@H](CC(N)=O)C(=O)N[C@@H](C)C(=O)N[C@@H](CCCNC(=N)N)C(=O)N[C@@H](CC(C)C)C(=O)N[C@@H](CC(C)C)C(=O)N[C@@H](C)C(=O)N[C@@H](CCCNC(=N)N)C(=O)N[C@H](C(N)=O)C(C)C)[C@@H](C)O)[C@@H](C)O` [compound 23], for which the Emax at CRF2R turned out to be 100%; at CRF1R it was 82%.

Regarding `CC[C@H](C)[C@H](NC(=O)[C@H](CCCNC(=N)N)NC(=O)[C@H](C)NC(=O)[C@H](CC(N)=O)NC(=O)[C@@H](NC(=O)[C@@H](NC(=O)[C@H](C)NC(=O)[C@H](CCC(N)=O)NC(=O)[C@H](CCC(N)=O)NC(=O)[C@H](CCCCN)NC(=O)[C@H](CCC(=O)O)NC(=O)[C@H](CCCCN)NC(=O)[C@H](CCC(=O)O)NC(=O)[C@H](CCC(N)=O)NC(=O)[C@H](CCCCN)NC(=O)[C@H](CCC(=O)O)NC(=O)[C@@H](NC(=O)[C@H](CCC(=O)O)NC(=O)[C@@H](NC(=O)[C@H](CCSC)NC(=O)[C@H](CCCCN)NC(=O)[C@H](CCCNC(=N)N)NC(=O)[C@H](CC(C)C)NC(=O)[C@H](CC(C)C)NC(=O)[C@H](CCC(=O)O)NC(=O)[C@H](CC(C)C)NC(=O)[C@@H]1CCCN1C(=O)[C@H](CC(C)C)NC(=O)[C@H](CC(=O)O)NC(=O)[C@@H](NC(=O)[C@H](CO)NC(=O)[C@@H](NC(=O)[C@@H]1CCCN1C(=O)[C@@H]1CCCN1C(=O)CNC(=O)[C@@H]1CCC(=O)N1)[C@@H](C)CC)[C@@H](C)CC)[C@@H](C)CC)[C@@H](C)CC)[C@@H](C)O)[C@@H](C)O)C(=O)N[C@@H](CC(C)C)C(=O)N[C@@H](C)C(=O)N[C@@H](CCCNC(=N)N)C(=O)N[C@H](C(N)=O)C(C)C` [compound 143], the Emax was found to be 85.5% on CRF2R and 100% at CRF1R.

With `CC[C@H](C)[C@H](NC(=O)[C@@H](NC(=O)[C@H](CC(=O)O)NC(=O)[C@H](CC(C)C)NC(=O)[C@H](CC(C)C)NC(=O)[C@H](CC(C)C)NC(=O)[C@H](CCCNC(=N)N)NC(=O)[C@H](CC(N)=O)NC(=O)[C@H](CC(N)=O)NC(=O)[C@H](C)NC(=O)[C@H](C)NC(=O)[C@H](CCC(N)=O)NC(=O)[C@H](CCC(N)=O)NC(=O)[C@H](CCCCN)NC(=O)[C@H](CCC(=O)O)NC(=O)[C@H](CCCCN)NC(=O)[C@H](CCC(=O)O)NC(=O)[C@H](CCC(N)=O)NC(=O)[C@H](CCCCN)NC(=O)[C@H](CCC(=O)O)NC(=O)[C@@H](NC(=O)[C@H](CCC(=O)O)NC(=O)[C@@H](NC(=O)[C@H](CCSC)NC(=O)[C@H](CCCCN)NC(=O)[C@H](CCCNC(=N)N)NC(=O)[C@H](CC(C)C)NC(=O)[C@H](CC(C)C)NC(=O)[C@H](CC(C)C)NC(=O)[C@@H](NC(=O)[C@@H]1CCCN1C(=O)[C@H](CC(C)C)NC(=O)[C@H](CC(=O)O)NC(=O)[C@@H](NC(=O)[C@H](CO)NC(=O)[C@@H](NC(=O)[C@@H]1CCCN1C(=O)[C@@H]1CCCN1C(=O)CNC(=O)[C@@H]1CCC(=O)N1)[C@@H](C)CC)[C@@H](C)CC)[C@@H](C)CC)[C@@H](C)CC)[C@@H](C)CC)[C@@H](C)O)C(N)=O` [compound 35], the Emax at CRF2R came out at 88%; on CRF1R, 74%.

Consider `CC[C@H](C)[C@H](NC(=O)[C@@H](NC(=O)[C@H](CC(=O)O)NC(=O)[C@H](CC(C)C)NC(=O)[C@H](CC(C)C)NC(=O)[C@H](CC(C)C)NC(=O)[C@H](CCCNC(=N)N)NC(=O)[C@H](CC(N)=O)NC(=O)[C@H](CC(N)=O)NC(=O)[C@H](C)NC(=O)[C@H](C)NC(=O)[C@H](CCC(N)=O)NC(=O)[C@H](CCC(N)=O)NC(=O)[C@H](CCCCN)NC(=O)[C@H](CCC(=O)O)NC(=O)[C@H](CCCCN)NC(=O)[C@H](CCC(=O)O)NC(=O)[C@H](CCC(N)=O)NC(=O)[C@H](CCCCN)NC(=O)[C@H](CCC(=O)O)NC(=O)[C@@H](NC(=O)[C@H](CCC(=O)O)NC(=O)[C@@H](NC(=O)[C@H](CCSC)NC(=O)[C@H](CCCCN)NC(=O)[C@H](CCCNC(=N)N)NC(=O)[C@H](CC(C)C)NC(=O)[C@H](CC(C)C)NC(=O)[C@H](Cc1c[nH]cn1)NC(=O)[C@H](Cc1ccccc1)NC(=O)[C@@H]1CCCN1C(=O)[C@H](CC(C)C)NC(=O)[C@H](CC(=O)O)NC(=O)[C@@H](NC(=O)[C@H](CO)NC(=O)[C@@H](NC(=O)[C@@H]1CCCN1C(=O)[C@@H]1CCCN1C(=O)CNC(=O)[C@@H]1CCC(=O)N1)[C@@H](C)CC)[C@@H](C)CC)[C@@H](C)CC)[C@@H](C)CC)[C@@H](C)O)C(N)=O` [compound 69], for which the Emax on CRF2R was found to be 81%; on CRF1R it was 88%.
